Laboratory results from publication PMC10641276 (Saudi Pharmaceutical Journal : SPJ, 2023).

Chains of the proteins cited; added tags and fusions are not shown. Lines headed by an entry give the natural chain unless they say otherwise; changes in a name come on top.
UniProt P07650: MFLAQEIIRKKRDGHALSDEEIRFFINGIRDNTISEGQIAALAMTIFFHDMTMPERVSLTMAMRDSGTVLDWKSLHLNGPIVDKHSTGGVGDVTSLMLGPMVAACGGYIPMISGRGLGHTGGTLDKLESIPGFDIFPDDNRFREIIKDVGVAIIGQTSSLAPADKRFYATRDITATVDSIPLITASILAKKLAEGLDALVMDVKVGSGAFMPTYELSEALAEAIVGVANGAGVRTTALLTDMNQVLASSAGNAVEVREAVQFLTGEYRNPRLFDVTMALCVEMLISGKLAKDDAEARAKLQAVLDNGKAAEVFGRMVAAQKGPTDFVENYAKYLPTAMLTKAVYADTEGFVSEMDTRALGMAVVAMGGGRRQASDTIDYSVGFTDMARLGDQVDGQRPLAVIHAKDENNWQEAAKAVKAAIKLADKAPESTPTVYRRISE

Target: thymidine phosphorylase (Escherichia coli, UniProt P07650)
Type: biochemical
Conditions: read-out: IC50 ± SEM

7-Deazaxanthine [reference compound]
IC50: 25.8 ± 1.9 µM
